According to patent US20240226027A1, “PHARMACEUTICAL COMPOSITION IN THE FORM OF AN INJECTABLE NANOCOMPOSITE GEL FOR CO-DELIVERY OF MULTIPLE MEDICINES OR DRUGS” (Nuecology Biomedical Inc., priority 2023, published 2024):

Test system: SKBR-3-derived tumor
Assay: in-vivo study of the trastuzumab gel, SKBR3 breast tumor
Parameters: species or system BALB/c Nude mice
Settings: SC injection
Text: The injectable nanocomposite gel carrying biosimilar drug, i.e., trastuzumab, with different dosing concentration designed based on clinical data per dosing, for a subsequent animal study. The breast tumor was cultivated by injection 1×10^7 SKBR3 cells to the right flank region of the mice, and the controls are given below: • Objects: Seven-week-old BALB/c Nude mice (Female) • Quantity: 5 groups, 4 mice for each group, totally 20. • Reagent and Drugs: (1) PBS; (2) free-trastuzumab; (3) 1× trastuzumab gel; (4) 2× trastuzumab gel; (5) 3× trastuzumab gel (for 3-week dose at one injection) • Dose: 25 mg/kg and 50 mg/kg, and 75 mg/kg, one SC injection per week • Injection frequency: Three doses on 2 weeks (Subcutaneous injection) • Injection Volume: 100 ul/20 g • Observation: The body weights of the mice were measured, and the tumor size for each mouse was measured twice a week. • Test period: 2-3 weeks, depending on size change of the breast tumor. • Injection site: subcutaneous site on the left flank region of the mice

Substance: trastuzumab [free trastuzumab]
- tumor size (first week, from ~100 mm^3, PBS control nearly 1000 mm^3): 813 mm^3
- tumor size (second week, PBS control ~1800 mm^3): ~1500 mm^3
